Source: patent US9388136B2, “Tert-butyl N-[2-{4-[6-amino-5-(2,4-difluorobenzoyl)-2-oxopyridin-1(2H)-yl]-3,5-difluorophenyl}ethyl]-L-alaninate or a salt, hydrate or solvate thereof” (Chroma Therapeutics Ltd., priority 2012, dated 2016)

By UniProt entry, the sequences of proteins in these tests, tags left out.
UniProt Q16539, whole entry: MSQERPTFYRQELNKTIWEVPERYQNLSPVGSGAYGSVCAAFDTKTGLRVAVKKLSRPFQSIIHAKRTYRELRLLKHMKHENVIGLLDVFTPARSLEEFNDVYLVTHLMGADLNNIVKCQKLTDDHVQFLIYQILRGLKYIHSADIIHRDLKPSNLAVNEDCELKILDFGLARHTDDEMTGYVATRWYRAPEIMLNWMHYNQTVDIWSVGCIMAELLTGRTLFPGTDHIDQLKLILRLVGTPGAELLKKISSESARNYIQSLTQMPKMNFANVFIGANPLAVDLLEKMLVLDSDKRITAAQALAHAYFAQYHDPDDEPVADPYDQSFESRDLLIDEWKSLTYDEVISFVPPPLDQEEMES

Molecular target: p38 MAP Kinase a (Homo sapiens (Human), UniProt Q16539)
Test: p38 MAP kinase enzyme assay (radiometric filter-binding)
Assay type: biochemical
Procedure: The ability of compounds to inhibit p38 MAP a Kinase activity was measured in an assay performed by Upstate (Dundee UK). In a final reaction volume of 25 μL, p38 MAP Kinase a (5-10 mU) is incubated with 25 mM Tris pH 7.5, 0.002 mMEGTA, 0.33 mg/mL myelin basic protein, 10 mM MgAcetate and [g-33p-ATP] (specific activity approx. 500 cpm/pmol, concentration as required). The reaction is initiated by the addition of the MgATP mix. After incubation for 40 minutes at room temperature, the reaction is stopped by the addition of 5 μL of a 3% phosphoric acid solution. 10 μL of the reaction is then spotted onto a P30 filtermat and washed three times for 5 minutes in 75 mM phosphoric acid and once in methanol prior to drying and scintillation counting.
Duplicate data points are generated from a 1/3 log dilution series of a stock solution in DMSO. Nine dilutions steps are made from a top concentration of 10 μM, and a ‘no compound’ blank is included. The standard radiometric filter-binding assay is performed at an ATP concentration at, or close to, the Km. Data from scintillation counts are collected and subjected to free-fit analysis by Prism software.

`CC(C)(C)OC(=O)[C@@H](NCCc1cc(F)c(-n2c(N)c(C(=O)c3ccc(F)cc3F)ccc2=O)c(F)c1)c1ccccc1` [tert-butyl (2S)-[(2-{4-[6-amino-5-(2,4-difluoro-benzoyl)-2-oxopyridin-1(2H)-yl]-3,5-difluorophenyl}ethyl)amino] (phenyl)acetate] gave a pIC50 (corresponding acid (hydrolysis product of the named ester) tested, read-out: B—acid enzyme assay (p38 kinase A (invitrogen)), IC50) of 9.00 and a pIC50 (ester tested, read-out: A—ester enzyme assay (p38 kinase A (invitrogen)), IC50) of 7.36.

pIC50: −log10 of the molar value. Where two headings read alike, the source gives them in different places.
